Test results taken from article PMC3389199 (Bioorganic & medicinal chemistry letters, 2012).

Target: T1, hDAGLα (Homo sapiens, UniProt Q9Y4D2)
T1 sequence (Q9Y4D2 1-1042): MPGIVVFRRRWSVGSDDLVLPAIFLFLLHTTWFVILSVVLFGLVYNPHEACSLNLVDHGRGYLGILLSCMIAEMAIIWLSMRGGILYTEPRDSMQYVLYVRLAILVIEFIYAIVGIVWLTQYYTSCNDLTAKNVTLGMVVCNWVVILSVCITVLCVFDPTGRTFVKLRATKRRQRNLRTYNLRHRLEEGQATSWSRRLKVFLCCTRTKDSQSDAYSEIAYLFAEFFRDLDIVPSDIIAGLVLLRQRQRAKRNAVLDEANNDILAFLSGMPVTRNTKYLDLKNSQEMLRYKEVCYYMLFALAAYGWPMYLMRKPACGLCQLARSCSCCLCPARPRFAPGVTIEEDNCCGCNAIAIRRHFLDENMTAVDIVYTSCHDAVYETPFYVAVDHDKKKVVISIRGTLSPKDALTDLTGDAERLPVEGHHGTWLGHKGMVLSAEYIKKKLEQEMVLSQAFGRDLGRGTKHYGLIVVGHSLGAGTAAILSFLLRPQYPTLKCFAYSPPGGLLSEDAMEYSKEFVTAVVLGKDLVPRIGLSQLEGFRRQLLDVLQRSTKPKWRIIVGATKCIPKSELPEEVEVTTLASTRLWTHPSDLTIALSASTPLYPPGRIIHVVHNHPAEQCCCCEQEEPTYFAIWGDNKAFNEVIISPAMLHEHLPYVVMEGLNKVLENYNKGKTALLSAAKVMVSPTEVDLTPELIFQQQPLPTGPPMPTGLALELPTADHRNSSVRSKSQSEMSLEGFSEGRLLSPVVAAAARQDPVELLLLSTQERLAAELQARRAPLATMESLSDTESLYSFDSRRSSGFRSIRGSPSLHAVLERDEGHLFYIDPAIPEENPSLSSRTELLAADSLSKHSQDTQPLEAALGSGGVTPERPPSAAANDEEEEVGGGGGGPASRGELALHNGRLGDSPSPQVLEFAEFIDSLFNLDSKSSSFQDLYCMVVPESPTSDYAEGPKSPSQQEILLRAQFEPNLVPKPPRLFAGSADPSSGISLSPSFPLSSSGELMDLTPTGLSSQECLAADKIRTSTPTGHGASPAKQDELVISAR
Experiment: Radio-TLC assay of hDAGLα inhibition with [14C]SAG substrate
Format: biochemical

| Structure (SMILES) | selectivity for diacylglycerol lipase over monoacylglycerol lipase and fatty acid amide hydrolase enzymes (in words) |
| --- | --- |
| CCCCCCCCCCC[C@@H](C[C@@H]1OC(=O)[C@H]1CCCCCC)OC(=O)[C@@H](NC=O)[C@@H](C)CC [4 (OMDM-188), OMDM-188] | good selectivity |
| CCCCCCCCCCC[C@@H](C[C@@H]1OC(=O)[C@H]1CCCCCC)OC(=O)[C@@H](NC=O)[C@H](C)CC [Compound 5] | good selectivity |
